Biological target: Coagulation factor XII (Homo sapiens) (UniProt P00748)
Test: human FXIIa protease inhibitors, dose response, biochemical, confirmation of 1536-well hits (AID 852)
Details: purified human plasma FXIIa, fluorogenic AMC substrate, 384-well, 2 h

Protein sequences, listed by entry. Tags and fused reporters are not part of them. Lines headed by an entry give the natural chain unless they say otherwise; changes in a name come on top.
UniProt P00748: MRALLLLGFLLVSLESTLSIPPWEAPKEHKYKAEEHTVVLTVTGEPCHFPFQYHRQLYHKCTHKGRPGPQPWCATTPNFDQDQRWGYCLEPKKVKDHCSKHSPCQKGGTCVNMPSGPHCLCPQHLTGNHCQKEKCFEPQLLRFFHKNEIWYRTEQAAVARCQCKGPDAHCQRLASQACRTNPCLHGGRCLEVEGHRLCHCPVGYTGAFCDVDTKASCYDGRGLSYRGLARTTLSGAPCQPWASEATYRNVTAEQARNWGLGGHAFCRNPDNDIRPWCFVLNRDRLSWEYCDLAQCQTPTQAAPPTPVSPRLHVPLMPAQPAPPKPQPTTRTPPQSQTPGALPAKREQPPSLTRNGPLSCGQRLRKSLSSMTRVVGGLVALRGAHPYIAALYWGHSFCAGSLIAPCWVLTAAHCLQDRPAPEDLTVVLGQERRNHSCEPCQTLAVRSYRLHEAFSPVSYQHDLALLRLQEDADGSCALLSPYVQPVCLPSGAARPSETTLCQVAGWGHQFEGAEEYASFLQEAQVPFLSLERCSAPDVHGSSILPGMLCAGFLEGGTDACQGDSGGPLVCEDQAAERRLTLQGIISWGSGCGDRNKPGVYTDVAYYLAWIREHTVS

IC50: 13.7 µM
SMILES: N=C(N)c1ccc(OCCCCCOc2ccc(C(=N)N)cc2)cc1

Reference: PubChem BioAssay AID852 (PCMD, 2007)
